Experimental data as given in patent US11220482B2, “Aminopyridinemethanol compounds and their use” (UNIVERSITE AMIENS PICARDIE JULES VERNE, priority 2017, dated 2022).

Key:
CHO-K1 cells [1] = assay: In vitro micronucleus assay, short-term exposure; details: without S9 mix, positive control 0.6 μg/mL
CHO-K1 cells [2] = assay: In vitro micronucleus assay, long-term exposure; details: long-term (24 h), without S9 mix, positive control 0.6 μg/mL

`CO[C@@]12[C@H](COC(N)=O)C3=C(C(=O)C(C)=C(N)C3=O)N1C[C@@H]1N[C@@H]12` [Mitomycin C, mitomycin C] was tested, and the “MNC1 (micronucleated cell rate)” value (CHO-K1 cells [1]) was 28 ‰ and the “MNC2 (micronucleated cell rate)” value (CHO-K1 cells [2]) was 32 ‰.
